From ChEMBL document CHEMBL1759976, “Carbonic anhydrase inhibitors. Inhibition of the β-class enzymes from the fungal pathogens Candida albicans and Cryptococcus neoformans with branched aliphatic/aromatic carboxylates and their derivatives” (Bioorg Med Chem Lett, 2011) come the findings set out here.

Broadly, the Ki is the equilibrium dissociation constant of an inhibitor or competing ligand from its target.

The assay concerns the target Carbonic anhydrase 2 (Homo sapiens, UniProt P00918).

Regarding `O=C(O)c1ccc(O)cc1`, the Ki was 7.28 µM.
